This note sets out measurements from patent publication US20180086837A1 (Ablynx, published 2018).

Protein sequences, listed by entry. Tags and fused reporters are not part of them.
UniProt P61073, whole entry D187V: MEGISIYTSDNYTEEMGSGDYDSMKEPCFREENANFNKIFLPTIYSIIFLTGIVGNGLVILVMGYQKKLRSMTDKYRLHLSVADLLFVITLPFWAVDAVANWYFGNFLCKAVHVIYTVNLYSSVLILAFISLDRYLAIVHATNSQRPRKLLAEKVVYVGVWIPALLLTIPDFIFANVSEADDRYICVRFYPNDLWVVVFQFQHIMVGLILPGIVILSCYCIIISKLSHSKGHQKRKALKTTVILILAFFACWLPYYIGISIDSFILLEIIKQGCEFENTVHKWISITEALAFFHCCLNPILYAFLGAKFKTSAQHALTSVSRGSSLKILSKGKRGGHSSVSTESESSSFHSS
UniProt P61073, whole entry F189V: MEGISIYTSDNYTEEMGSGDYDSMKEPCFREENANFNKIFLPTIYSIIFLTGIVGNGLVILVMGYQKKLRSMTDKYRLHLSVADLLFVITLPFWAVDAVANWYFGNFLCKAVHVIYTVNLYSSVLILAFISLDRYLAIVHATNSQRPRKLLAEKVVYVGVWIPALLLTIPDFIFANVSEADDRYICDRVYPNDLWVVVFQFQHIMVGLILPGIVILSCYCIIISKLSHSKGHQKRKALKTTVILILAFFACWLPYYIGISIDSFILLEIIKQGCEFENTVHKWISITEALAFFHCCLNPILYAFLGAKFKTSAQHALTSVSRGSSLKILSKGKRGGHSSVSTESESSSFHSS

Assay [1] has as its target T1, hCXCR4 D187V (human, UniProt P61073 1-352).
T1 construct: whole, on cells
The assay is described as follows: flow cytometry, transfected HEK293T cells, 100 nM, normalised to 12G5. Background: A flow cytometer gives signals particle by particle.

Assay [2] has as its target T2, hCXCR4 F189V (human, UniProt P61073 1-352).
T2 construct: whole, on cells
Described as above.

The target in assay [3] is T1, hCXCR4 D187V. The assay is described as follows: flow cytometry, transfected HEK293T cells, 10 nM, normalised to 12G5.
The target in assay [4] is T2, hCXCR4 F189V. The assay is described as above.

B1: Nanobody 281D4 (VHH)
VHH: EVQLVESGGGLVQAGGSLRLSCAASGGTFNNYAMGWFRRAPGKEREFVAAISRSGVRTGVSALYGDSVKDRFTISRDNAKNTLYLQMNKMKPEDTAVYTCAASAIGSGALRRFEYDSSGQGTQVTVSS
notes: Purified Nanobody
On to B1, for which the “% binding relative to hCXCR4” value in assay [1] came out at 0.6%; in assay [2], 0.5%; in assay [3], 0.9%; in assay [4], 0.5%.

B2: Nanobody 15A1 (VHH)
VHH: EVQLVESGGGLVQAGGSLRLSCAASGRTFSRAAMGWFRQAPGKEREFVGCALSSAGSALTADSVKGRFTISRDNAKNMVYLQMNNLKPEDTAVYSCVAGGYCTRAGVYPYWGQGTQVTVSS
notes: also called 15A01
For the molecule B2, the “% binding relative to hCXCR4” value in assay [1] was 108%; in assay [2], 1.9%; in assay [3] it was 115%; in assay [4] it was 0.8%.

B3: Nanobody 10C3 (VHH)
VHH: EVQLVESGGGLVQPGGSLRLSCAASGTIFSTSTMGWYSQAPGKQRELVADITFLGSAKYADSVKGRFTISRDKIKNTVYLQMNSLKPEDTAAYYCNARQSTFRGVHYNYWGQGTQVTVSS
notes: also called 10C03
Consider B3, for which the “% binding relative to hCXCR4” value came out at 24.7% in assay [1], 0.6% in assay [2], 12.8% in assay [3] and 0.9% in assay [4].

B4: Nanobody 15G11 (VHH)
VHH: EVQLVESGGGLVQAGDSLRVSCAASGRTSSYAMAWFRQAPGKEREFVGTISRTNSRTKYADFVEGRFTISRDNAKSTLSLQMTSLKPEDTAVYYCAAKWTGNSYHDYTWSKVDEYNVWGQGTQVTVSS
For B4, the “% binding relative to hCXCR4” value in assay [1] came to 50.3%; in assay [2], 0.1%; in assay [3], 35.4%; in assay [4], 0.1%.
